# Experimental data from PubChem BioAssay (Tox21).
# By UniProt entry, the sequences of proteins in these tests, tags left out. Where a name states a change or a piece, a line headed by the entry shows the natural chain unless it says otherwise.
# UniProt P30968: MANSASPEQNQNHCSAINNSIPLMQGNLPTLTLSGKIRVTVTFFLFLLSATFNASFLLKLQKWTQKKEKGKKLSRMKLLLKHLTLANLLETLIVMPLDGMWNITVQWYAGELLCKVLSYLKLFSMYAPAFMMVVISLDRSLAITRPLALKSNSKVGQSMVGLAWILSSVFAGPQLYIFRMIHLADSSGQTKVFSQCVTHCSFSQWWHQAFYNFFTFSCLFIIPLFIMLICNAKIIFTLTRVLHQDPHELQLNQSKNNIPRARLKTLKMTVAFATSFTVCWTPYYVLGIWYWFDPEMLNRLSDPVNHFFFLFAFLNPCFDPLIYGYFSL
# Only a part is listed here, and it is no random draw. Activity calls are given as the source filed them. Calls come from the whole dose curve. Where a call stands in place of a potency, no number is given.
# Target: Gonadotropin-releasing hormone receptor (Homo sapiens) (UniProt P30968)
# Test: Human gonadotropin-releasing hormone receptor (GnRHR) small molecule agonists, calcium flux assay in GnRHR-HEK293 cells (AID 1920063); note: nearly all actives have a fitted effect of over 35% in size
# Conditions: calcium flux fluorescence, agonist mode; series mostly up to 57.6 µM
# Excerpt: National Center for Advancing Translational Sciences [NCATS]
# Division of Preclinical Innovation [DPI]
# U.S. Environmental Protection Agency [EPA]
# National Institutes of Environmental Health Sciences [NIEHS]
# National Toxicology Program [NTP]
# U.S. Food and Drug Administration [FDA]
# Gonadotropin-releasing hormone receptor (GnRHR) is a G-protein-coupled receptor (GPCR) and acts (through phospholipase C) to increase intracellular inositol trisphosphate and then release intracellular calcium stores. Cell-based GnRHR-Hek293 calcium influx assay is using HEK293 cells that have been genetically engineered to express the human GnRHR, which activity can be measured by calcium signaling. A compound/drug can activate (agonist) GnRHR that can be monitored by levels of intracellular calcium.
# GnRHR-HEK293 cells developed by Codex Corp contain human GnRHR reporter gene, which was stably integrated into HEK 293 cells. The compound activation can be detected by fluorescence intensity via calcium flux assay. This cell line has been used to screen the Tox21 10K compound library to identify GnRHR agonists.
# GnRHR-Hek293 cells were dispensed at 1500cells/4uL/well in 1536-well black wall/clear bottom plates using a multidrop dispenser. After the assay plates were incubated at a 37 C/5% CO2 incubator for 18 hours, 4 uL of Calcium Dye Solution was added to each well. The plates were incubated at 37 C for 1 hour. For agonist mode, 23 nL of compounds dissolved in DMSO, positive controls or DMSO only was transferred to the assay plate by a pin tool station. The fluorescence intensity in the plates was measured using FDSS 7000EX kinetic plate reader with a filter set of Ex/Em=480/540 for 3 min at 1 sec intervals. Each test compound was measured at 15 concentrations and in triplicates.
# Potency is the fitted concentration of half-maximal effect.
SMILES,Potency,activity change
O=[p+]1oc2ccccc2c2ccccc21 (stereo not given),inactive,–
O=C(Cl)Oc1ccccc1,inactive,–
CCCCOP(OCCCC)OCCCC,inactive,–
CCCCCCCCCCCCCC[P+](CCCCCC)(CCCCCC)CCCCCC,inactive,–
Cc1cc([N+](=O)[O-])c(O)c([N+](=O)[O-])c1,inactive,–
COP(=S)(Cl)OC,inactive,–
O=[As]c1ccccc1 (stereo not given),active: 34.7 µM,–
O=P(Cl)(Oc1ccccc1)Oc1ccccc1,inactive,–
CCNC(C)Cc1ccc2c(c1)OCO2 (stereo not given),inactive,–
CC(C)CCCCCCCOP(OCCCCCCCC(C)C)Oc1ccccc1,inactive,–
CC(C)OP(=S)(OC(C)C)SCCNS(=O)(=O)c1ccccc1,inactive,–
CCOC(=O)Cl,inactive,–
CN(C(=O)Cc1ccccc1)[C@H]1CC[C@@]2(CCCO2)C[C@@H]1N1CCCC1,inactive,–
CN(C(=O)Cc1cccc2occc12)[C@H]1CC[C@@]2(CCCO2)C[C@@H]1N1CCCC1,inactive,–
CCCCC(CC)CO[P+](=O)OCC(CC)CCCC (stereo not given),inactive,–
NC(=O)Nc1ccc([As](=O)(O)O)cc1,inactive,–
O=C(Cl)OCCOC(=O)Cl,inactive,–
Cc1cc([N+](=O)[O-])cc([N+](=O)[O-])c1O,inactive,–
O=P(Cl)(Cl)c1ccccc1,inactive,–
O=[N+]([O-])c1ccc(S(=O)(=O)O)c([N+](=O)[O-])c1,inactive,–
O=[P+](Oc1ccccc1)Oc1ccccc1,inactive,–
O=[N+]([O-])c1ccc([N+](=O)[O-])cc1,inactive,–
CCOP(=S)(CC)Sc1ccccc1 (stereo not given),inactive,–
CN(N=O)C(=N)N[N+](=O)[O-],inactive,–
N#CSc1ccc([N+](=O)[O-])cc1[N+](=O)[O-],inactive,–
CCCCO[P+](=O)OCCCC,inactive,–
CCC(C)(OOC(C)(C)C)OOC(C)(C)C,–,"inactive: 0.278% [at 11.8 µM, active compounds read high]"
CN(C(=O)Cc1ccc(Cl)c(Cl)c1)[C@H]1CC[C@@]2(CCCO2)C[C@@H]1N1CCCC1,inactive,–
ClP(Cl)c1ccccc1,inactive,–
COC(=O)Cl,inactive,–
